Publication PMC3685188 (Chemical Research in Toxicology, 2013)

By UniProt entry, the sequences of proteins in these tests, tags left out.
UniProt P30536, whole entry: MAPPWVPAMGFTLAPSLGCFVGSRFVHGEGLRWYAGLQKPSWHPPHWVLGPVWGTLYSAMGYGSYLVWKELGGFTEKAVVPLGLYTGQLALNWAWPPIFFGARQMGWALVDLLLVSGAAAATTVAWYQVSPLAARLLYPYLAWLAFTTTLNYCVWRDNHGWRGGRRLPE

Molecular target: hPBR (Homo sapiens, UniProt P30536)
Assay: MP_hPBR translocator protein
Assay type: binding

## CCC(C)N(C)C(=O)c1cc2ccccc2c(-c2ccccc2Cl)n1 (stereo not shown) [PK11195, reference compound]
  AC50 at the lowest concentration tested (LCT): MP_hPBR
